Earlier results, collected in patent US20200254041A1, “RAPID ONSET AND EXTENDED ACTION PLANT-BASED AND SYNTHETIC CANNABINOID FORMULATIONS” (RECEPTOR HOLDINGS, INC., priority 2017, published 2020).

Details: cited from earlier work

Question: Which “water solubility (in words)” value does the source give for Catechin here?
Answer: Its value is “low water solubility”.
